Test results reported in ChEMBL document CHEMBL1138832, “N2-substituted O6-cyclohexylmethylguanine derivatives: potent inhibitors of cyclin-dependent kinases 1 and 2” (J Med Chem, 2004).

Target: Cyclin-dependent kinase 2/cyclin A (Homo sapiens, UniProt P24941)
Test: Inhibition of cyclin-dependent kinase 2-cyclin A3 (CDK2)
Type: protein-complex assay

Row | SMILES | IC50 [µM]
1 | CS(=O)(=O)c1ccc(Nc2nc(OCC3CCCCC3)c3[nH]cnc3n2)cc1 | 63
2 | C[S+]([O-])c1ccc(Nc2nc(OCC3CCCCC3)c3[nH]cnc3n2)cc1 (configuration not stated) | 0.1
